In PubChem BioAssay AID720648 (The Scripps Research Institute Molecular Screening Center, 2013):
This is a selection; strong and weak results do not stand in their true shares. The source made the active and inactive calls.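 How the source made its calls: active means inhibition above the mean of compounds lying between control limits plus 3 SD, set per campaign (cut at about 8.5% in these data); inactive means the rest.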

Chains of the proteins cited; added tags and fusions are not shown. Residues count along the entry.
UniProt P78536, 215-824 limits assumed: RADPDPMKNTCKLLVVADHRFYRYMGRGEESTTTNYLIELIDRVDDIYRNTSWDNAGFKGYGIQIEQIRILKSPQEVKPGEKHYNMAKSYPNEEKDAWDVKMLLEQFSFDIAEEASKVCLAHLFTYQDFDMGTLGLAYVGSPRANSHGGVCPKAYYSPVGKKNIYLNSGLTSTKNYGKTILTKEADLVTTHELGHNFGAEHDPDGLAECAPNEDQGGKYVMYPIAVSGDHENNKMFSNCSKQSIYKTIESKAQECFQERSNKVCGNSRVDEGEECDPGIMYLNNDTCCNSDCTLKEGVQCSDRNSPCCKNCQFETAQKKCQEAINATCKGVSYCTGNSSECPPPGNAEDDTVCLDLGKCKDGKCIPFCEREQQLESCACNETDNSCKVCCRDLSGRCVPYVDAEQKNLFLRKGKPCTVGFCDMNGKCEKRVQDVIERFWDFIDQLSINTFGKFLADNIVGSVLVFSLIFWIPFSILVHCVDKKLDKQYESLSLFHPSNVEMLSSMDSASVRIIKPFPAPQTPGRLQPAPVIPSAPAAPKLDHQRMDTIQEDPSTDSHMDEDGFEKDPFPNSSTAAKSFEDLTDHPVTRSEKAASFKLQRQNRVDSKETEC

biological target: Disintegrin and metalloproteinase domain-containing protein 17 (Homo sapiens) (UniProt P78536); experiment: inhibition of ADAM17 peptide cleavage – biochemical, QFRET, primary screen (AID 720648); conditions: recombinant ADAM17, EDANS/DABCYL FRET peptide cleavage; at 6.95 µM; active compounds read high;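 further: 0% = DMSO-only wells as the low control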

SMILES	inhibition
COc1cc(OC)cc(C(=O)NCC2(N3CCCCC3)CCCCC2)c1	inactive: 2.03%
O=c1[nH]c2ccccc2n1C1CCN(C(c2ccnc3ccccc23)c2nnnn2C2CCCCC2)CC1 (stereo not given)	inactive: 4.52%
CCC(c1nnnn1C1CCCCC1)N1CCC(n2c(=O)[nH]c3ccccc32)CC1 (stereo not given)	inactive: 4.62%
COc1cccc(C(c2nnnn2C2CCCCC2)N2CCC(n3c(=O)[nH]c4ccccc43)CC2)c1OC (stereo not given)	inactive: 7.32%
CC(=O)N(c1ccccc1)C1CCNCC1	inactive: -4.62%
Cc1ccc(NC2(C#N)CCN(Cc3ccccc3)CC2)cc1	inactive: 1.21%
Fc1ccccc1NC1CCN(Cc2ccccc2)CC1	inactive: -0.78%
Cc1ccc(C(=O)NCC2(N3CCCCC3)CCCCC2)o1	inactive: -5.35%
COc1ccc(C(c2nnnn2C2CCCCC2)N2CCC(n3c(=O)[nH]c4ccccc43)CC2)cc1 (stereo not given)	inactive: -1.17%
CCN1CCC(Nc2cccc(F)c2)CC1	inactive: 0.37%
CC(C)(C)n1nnnc1C(c1ccnc2ccccc12)N1CCC(n2c(=O)[nH]c3ccccc32)CC1 (stereo not given)	inactive: -2.88%
Cc1ccccc1NC1(C#N)CCN(Cc2ccccc2)CC1	inactive: -1.6%
CN(C)c1ccc(C(=O)NCC2(N3CCCCC3)CCCCC2)cc1	inactive: -3.56%
Cn1c(=O)[nH]cc(N(CCCl)CCCl)c1=O	inactive: -2.94%
O=C(NCC1(N2CCCCC2)CCCCC1)c1ccco1	inactive: -1.38%
CN1CCC(Nc2ccc(F)c(Cl)c2)CC1	inactive: -3.05%
CCOc1ncccc1C(=O)NCC1(N2CCOCC2)CCCCC1	inactive: -2.2%
O=c1[nH]c2ccccc2n1C1CCN(C(c2cc3ccccc3o2)c2nnnn2C2CCCC2)CC1 (stereo not given)	inactive: 3.58%
CCCOc1ccc(C(=O)NCC2(N(C)C)CCCCC2)cc1	inactive: -8.23%
O=C(O)C1(Nc2ccccc2)CCN(Cc2ccccc2)CC1	inactive: -3.41%
NN(c1ccccc1)C1CCN(CCc2ccccc2)CC1	inactive: -1.12%
CC(C)(C)OC(=O)N1CCC(Nc2ccccc2)CC1	inactive: -2.31%

SMILES	inhibition
CCC(CO)(C(=O)OC1CN2CCC1CC2)c1ccccc1 (stereo not given)	inactive: 1.87%
COc1cc(OC)cc(C(=O)NCC2(N3CCOCC3)CCCCC2)c1	inactive: -1.07%
COc1cccc(C(c2nnnn2C2CCCC2)N2CCC(n3c(=O)[nH]c4ccccc43)CC2)c1OC (stereo not given)	inactive: 7.88%
COc1cccc(C(=O)N(c2cc(C)cc(C)c2)C2CCN(C(=O)OC(C)(C)C)CC2)c1	inactive: -0.88%
CN1CCC(Nc2ccc(Cl)cc2)CC1	inactive: -3.46%
O=C(NCC1(N2CCOCC2)CCCCC1)c1cc(Br)ccc1Cl	inactive: -0.27%
COc1cc(C(=O)NCC2(N3CCOCC3)CCCCC2)cc(OC)c1C	inactive: 1.91%
CCCCn1nnnc1C(c1ccccc1)N1CCC(n2c(=O)[nH]c3ccccc32)CC1 (stereo not given)	inactive: -0.04%
O=c1[nH]c2ccccc2n1C1CCN(C(c2ccnc3ccccc23)c2nnnn2C2CCCC2)CC1 (stereo not given)	inactive: 5.2%
COc1ccc(C(=O)NCC2(N3CCOCC3)CCCCC2)cc1OC	inactive: -0.91%
NC(=O)C1(Nc2ccccc2)CCN(Cc2ccccc2)CC1	inactive: 1.16%
O=c1[nH]c2ccccc2n1C1CCN(C(c2cccs2)c2nnnn2C2CCCCC2)CC1 (stereo not given)	inactive: 6.25%
N/C(=N\O)c1c(N)no[n+]1[O-]	inactive: -1.83%
CCOC(=O)N1CCC(Nc2ccc(C)cc2)CC1	inactive: -1.7%
COc1cccc(C(c2nnnn2C(C)(C)C)N2CCC(n3c(=O)[nH]c4ccccc43)CC2)c1OC (stereo not given)	inactive: 1.7%
CCCCn1nnnc1C(c1cccc(OC)c1OC)N1CCC(n2c(=O)[nH]c3ccccc32)CC1 (stereo not given)	inactive: 3.45%
O=c1[nH]c2ccccc2n1C1CCN(C(c2cccs2)c2nnnn2C2CCCC2)CC1 (stereo not given)	inactive: 3.87%
O=C(OC1CN2CCC1CC2)C1c2ccccc2C=Cc2ccccc21 (stereo not given)	inactive: -3.66%
CC(C)(C)OC(=O)N1CCC(N(C(=O)c2ccccc2)c2ccc(Cl)cc2)CC1	inactive: 2.19%
N#Cc1ccc(C(=O)NCC2(N3CCCCC3)CCCCC2)cc1	inactive: -2.6%
O=c1[nH]c2ccccc2n1C1CCN(C(c2ccccc2)c2nnnn2C2CCCC2)CC1 (stereo not given)	inactive: 0.53%
CCCN1CCC(Nc2cc(OC)cc(OC)c2)CC1	inactive: -7.35%

SMILES	inhibition
Cc1cc(N(CCCl)CCCl)ccc1C=O	inactive: -4.87%
C/C(N)=N\P(=O)(Oc1ccccc1)Oc1ccccc1	inactive: -0.71%
c1ccc(CN2CCC(Nc3ccccc3)CC2)cc1	inactive: 0.32%
CN(C)C1(CNC(=O)c2cccc(C#N)c2)CCCCC1	inactive: -1.3%
CC(C)(C)n1nnnc1C(c1cccc2ccccc12)N1CCC(n2c(=O)[nH]c3ccccc32)CC1 (stereo not given)	active: 9.72%
O=C(NCC1(N2CCCCC2)CCCCC1)c1ccc(OC(F)F)cc1	inactive: -1.89%
CC(C)(C)n1nnnc1C(c1ccccc1OC(F)(F)F)N1CCC(n2c(=O)[nH]c3ccccc32)CC1 (stereo not given)	inactive: -1.2%
O=C(NCC1(N2CCCCC2)CCCCC1)c1cccc([N+](=O)[O-])c1	inactive: -0.21%
CSc1ccc(C(=O)NCC2(N3CCOCC3)CCCCC2)cc1	inactive: 1.1%
O=c1[nH]c2ccccc2n1C1CCN(C(c2ccccc2OC(F)(F)F)c2nnnn2C2CCCC2)CC1 (stereo not given)	inactive: -3.32%
N#CC1(Nc2ccccc2)CCN(CCc2ccccc2)CC1	inactive: -0.75%
CCN1CCC(Nc2ccc(Cl)cc2)CC1	inactive: -9.81%
O=C(NCC1(N2CCCCC2)CCCCC1)c1cccc(C(F)(F)F)c1	inactive: -0.3%
CN1CCN(CCOC(=O)C(O)(c2ccccc2)c2ccccc2)CC1	inactive: 1.75%
COc1ccc(NC2CCN(C(=O)OC(C)(C)C)CC2)cc1	inactive: 1.08%
CC(C)c1ccc(C(=O)NCC2(N3CCOCC3)CCCCC2)cc1	inactive: -1.1%
CCCCn1nnnc1C(c1cccc2ccccc12)N1CCC(n2c(=O)[nH]c3ccccc32)CC1 (stereo not given)	inactive: 6.61%
COc1cc(C(=O)NCC2(N3CCCCC3)CCCCC2)ccc1OC(F)F	inactive: -1.73%
O=C(NCC1(N2CCOCC2)CCCCC1)c1cc(=O)[nH]c2ccccc12	inactive: -2.61%
CN(C)c1cccc(C(=O)NCC2(N3CCCCC3)CCCCC2)c1	inactive: -14.2%
COc1ccc(CN(CCCl)CCCl)cc1Cl	inactive: -7.02%
COC(=O)C1(Nc2ccccc2)CCN(Cc2ccccc2)CC1	inactive: -0.63%

SMILES	inhibition
CC(C)c1ccc(NC2CCN(C(=O)OC(C)(C)C)CC2)cc1	inactive: -0.26%
CCCCn1nnnc1C(c1ccnc2ccccc12)N1CCC(n2c(=O)[nH]c3ccccc32)CC1 (stereo not given)	inactive: 2.83%
CCC(c1nnnn1C(C)(C)C)N1CCC(n2c(=O)[nH]c3ccccc32)CC1 (stereo not given)	inactive: -3.99%
O=C(NCC1(N2CCOCC2)CCCCC1)c1cc(F)c(F)cc1Cl	inactive: -5.1%
COc1cc(OC)c(C(=O)NCC2(N(C)C)CCCCC2)cc1OC	inactive: -3.82%
CN1CCC(Nc2cccc(F)c2)CC1	inactive: -2.72%
O=C(NCC1(N2CCCCC2)CCCCC1)c1cncc(Br)c1	inactive: 4.09%
CCCOc1ccc(C(=O)NCC2(N(C)C)CCCCC2)cc1OC	inactive: -2.53%
Cc1ccc(C(=O)NCC2(N(C)C)CCCCC2)o1	inactive: 3.11%
COc1ccc(C(c2nnnn2C2CCCC2)N2CCC(n3c(=O)[nH]c4ccccc43)CC2)cc1 (stereo not given)	inactive: 2.79%
CCCCn1nnnc1C(CC)N1CCC(n2c(=O)[nH]c3ccccc32)CC1 (stereo not given)	inactive: 2.85%
O=C(NCC1(N2CCCCC2)CCCCC1)c1cccs1	inactive: -3.27%
CCCCn1nnnc1C(c1cccs1)N1CCC(n2c(=O)[nH]c3ccccc32)CC1 (stereo not given)	inactive: -1.29%
O=C(NCC1(N2CCCCC2)CCCCC1)c1ccc(=O)[nH]c1	inactive: 1.8%
COc1ccc(C(=O)NCC2(N3CCCCC3)CCCCC2)c(OC)c1OC	inactive: -3.41%
CC(C)(C)OC(=O)N1CCC(N(C(=O)c2ccccc2)c2ccc(F)cc2)CC1	inactive: 0.62%
CCC(c1nnnn1C1CCCC1)N1CCC(n2c(=O)[nH]c3ccccc32)CC1 (stereo not given)	inactive: -3.86%
COc1ccc(C(=O)NCC2(N3CCCCC3)CCCCC2)cc1	inactive: -2.1%
Cc1cccc(NC2(C#N)CCN(Cc3ccccc3)CC2)c1	inactive: 3.98%
CSc1ccccc1C(=O)NCC1(N2CCCCC2)CCCCC1	inactive: -2.53%
O=C(NCC1(N2CCOCC2)CCCCC1)c1cc2ccccc2o1	inactive: -0.54%
Cc1cc(C)cc(N(C(=O)c2ccccc2)C2CCN(C(=O)OC(C)(C)C)CC2)c1	inactive: 3.25%

SMILES	inhibition
O=C(NCC1(N2CCCCC2)CCCCC1)c1ccc(Cl)nc1	inactive: 4.05%
O=c1[nH]c2ccccc2n1C1CCN(C(c2ccccc2OC(F)(F)F)c2nnnn2C2CCCCC2)CC1 (stereo not given)	inactive: -0.05%
CCCCn1nnnc1C(c1ccc(OC)cc1)N1CCC(n2c(=O)[nH]c3ccccc32)CC1 (stereo not given)	inactive: -1.83%
CCOC(=O)N1CCC(Nc2ccc(OC)cc2)CC1	inactive: -1.69%
COc1ccc(Cl)cc1C(=O)NCC1(N2CCOCC2)CCCCC1	inactive: -0.91%
O=C(NCC1(N2CCCCC2)CCCCC1)c1ccc(Cl)s1	inactive: -2.11%
N#CC1(Nc2ccccc2)CCN(Cc2ccccc2)CC1	inactive: -3.39%
O=C(OC1CN2CCC1CC2)C1c2ccccc2Oc2ccccc21 (stereo not given)	inactive: -3.27%
O=c1[nH]c2ccccc2n1C1CCN(C(c2cc3ccccc3o2)c2nnnn2C2CCCCC2)CC1 (stereo not given)	inactive: -4.53%
CCOc1ccc(C)cc1CN(CCCl)CCCl	inactive: 2.6%
O=C1CCN(Cc2ccccc2)CC1	inactive: -3%
CC(C)(C)n1nnnc1C(c1ccccc1)N1CCC(n2c(=O)[nH]c3ccccc32)CC1 (stereo not given)	inactive: 0.38%
COc1ccc(NC2CCN(CCc3ccccc3)CC2)c(OC)c1	inactive: -1.78%
CCOC(=O)N1CCC(Nc2ccc(F)cc2)CC1	inactive: 3.04%
CCCCn1nnnc1C(c1cc2ccccc2o1)N1CCC(n2c(=O)[nH]c3ccccc32)CC1 (stereo not given)	inactive: 3.07%
O=P1(N(CCCl)CCCl)SCCCS1	inactive: -1.03%
CCCCOc1ccc(C(=O)NCC2(N3CCOCC3)CCCCC2)cc1	inactive: -2.12%
O=C(NCC1(N2CCCCC2)CCCCC1)c1ccc(F)cc1	inactive: -0.3%
O=c1[nH]c2ccccc2n1C1CCN(C(c2ccccc2)c2nnnn2C2CCCCC2)CC1 (stereo not given)	inactive: -2.58%
O=c1[nH]c2ccccc2n1C1CCN(C(c2cccc3ccccc23)c2nnnn2C2CCCC2)CC1 (stereo not given)	inactive: -1.14%
CCOC(=O)N1CCC(Nc2cccc(C)c2)CC1	inactive: -8.22%
COc1cc(C(=O)NCC2(N(C)C)CCCCC2)ccc1OC(F)F	inactive: -5.67%
